Data taken from patent publication US7507792B2, “MDA-7 proteins and methods of use thereof” (The Trustees of Columbia University In The City of New York, priority 1993, dated 2009).
“Also recorded” adds a separate entry of the source.

Experiments:
Assay type in all cases: cell-based, human
mda-8 = mda-8 expression (Northern blotting); details: H0-1
Description: FIG. 19 Effect of various treatment protocols on mda expression in H0-1 cells. IFN-β (2,000 units/ml, 24 hours); MEZ (10 ng/ml, 24 hours); IFN-β+MEZ (2,000 units/ml+10 ng/ml, 24 hours); phenyl butyrate (PB) (4 mM, 24 hours, 4 d, 7 d); γ Rad (γ irradiation) 3 gray, 24 hours, Act D (actinomycin D) (5 μg/ml, 2 hour→24 hours assay); Adriamycin (Adr) (0.1 μg/ml, 24 hours); Vincristine (Vin) (0.1 μg/ml, 24 hours); cis-plt (cis-platinum) (0.1 μg/ml, 24 hours); TNF-α (tumor necrosis factor-α) (100 units/ml, 24 hours); UV (10 joules/mm^2, 2, 14 and 24 hours assay); VP-16 (5 μg/ml, 24 hours); IFN-α (2,000 units/ml, 24 hours); and IFN-α+MEZ (2,000 units/ml+10 ng/ml, 24 hours).
The mass excision of the library was performed using ExAssist helper phage as described above. The SOLR strain of Escherichia coli and cDNA phagemids were mixed at 37° C. for 15 min and plated onto LB plates containing ampicillin and IPTG/X-gal. White colonies were chosen at random, isolated and grown in LB medium. Plasmid minireps and restriction enzyme digestions were performed to confirm the presence of inserts. The inserts were isolated and used as robes for Northern blotting analysis (5,25). […]

wild-type p53 protein = assay: Immunoprecipitation of p53 in H0-1 cells; details: IFN-β 2000 units/ml, MEZ 10 ng/ml
Description: Immunoprecipitation analyses were performed as described previously (Duigou et al., 1991; Su et al., 1993; Jiang et al., 1994b). Logarithmically growing H0-1 cells were either untreated or treated for 24, 48, 72 or 96 h with IFN-β (2000 units/ml), MEZ (10 ng/ml) or IFN-β+MEZ (2000 units/ml+10 ng/ml) in 10-cm plates. Cultures were starved of methionine for 1 h at 37° C. in methionine-free medium, cells were concentrated by pelleting and labeled for 1 h (p53) or 4 h (p21 and Actin) at 37° in 1 ml of the same medium with 100 μCi of [^35S] (NEN; Express ^35S). After labeling, the cells were washed twice with ice-cold phosphate-buffered saline and lysed for 1 h on ice by the addition of RIPC (20 mM Tris-base, pH 7.5, 500 mM NaCl, 0.05% Nonidet P-40, 100 μg/ml phenylmethylsulfonyl fluoride and 0.02% sodium azide). The lysate was clarified by centrifugation in an Eppendorf microfuge at 10,000×g for 10 min at 4° C. H0-1 samples containing 4×10^6 counts were incubated with 2 μg of p53 monoclonal antibody (Ab1; PAb421) (Oncogene Sciences), WAF1/CIP1 (C-19) (Santa Cruz Biotechnology) (or MDA-6 peptide-derived) rabbit polyclonal IgG or actin monoclonal antibody (Oncogene Sciences) with rocking at 4° C. for 24 h. Labeled cell lysates were also prepared from F0-1, L0-1, SH-1, WM239, FM516-SV, SW480, MeWo, human skin fibroblasts and Saos-2 cells. […]

mda-7 = mda-7 expression (Northern blotting, RT-PCR); details: H0-1
Description: The mass excision of the library was performed using ExAssist helper phage as described above. The SOLR strain of Escherichia coli and cDNA phagemids were mixed at 37° C. for 15 min and plated onto LB plates containing ampicillin and IPTG/X-gal. White colonies were chosen at random, isolated and grown in LB medium. Plasmid minireps and restriction enzyme digestions were performed to confirm the presence of inserts. The inserts were isolated and used as robes for Northern blotting analysis (5,25). […] Radiolabeled probes were generated by random oligonucleotide priming (25). Prehybridization, hybridization, posthybridization washes, and autoradiography were performed as described (5,18,25).

[1] = 24 hours, doses of FIG. 19, phenyl butyrate 24 hours, 4 days or 7 days
[2] = 96 hours, doses of FIG. 15 legend

B1: IFN-β: Recombinant human IFN-β, with a serine substituted for a cysteine at position 17 of the molecule (protein)
chain: MSYNLLGFLQRSSNFQCQKLLWQLNGRLEYCLKDRMNFDIPEEIKQLQQFQKEDAALTIYEMLQNIFAIFRQDSSSTGWNETIVENLLANVYHQINHLKTVLEEKLEKEDFTRGKLMSSLHLKRYYGRILHYLKAKEYSHCAWTIVRVEILRNFYFINRLTGYLRN
With B1 the mda-8 expression (mda-8; [1]) was “Increased expression; also recorded: No change in expression”, the mda-8 expression (mda-8; [2]) was “No change in expression” and the “wild-type p53 protein level” value (wild-type p53 protein; 24 h) was “no significant change”. For the same molecule, the “wild-type p53 protein level” value (wild-type p53 protein; over 48, 72, 96 h) was “no change”, the mda-7 expression (mda-7; [1]) was “increased mda-7 expression” and the mda-7 expression (mda-7; [2]) was “Increased expression”.
